The values below come from ChEMBL document CHEMBL1135787, “Synthesis of new molecular probes for investigation of steroid biosynthesis induced by selective interaction with peripheral type benzodiazepine receptors (PBR)” (J Med Chem, 2002).

The chains behind the UniProt entries cited, without tags or fusion partners.
UniProt P16257, whole entry: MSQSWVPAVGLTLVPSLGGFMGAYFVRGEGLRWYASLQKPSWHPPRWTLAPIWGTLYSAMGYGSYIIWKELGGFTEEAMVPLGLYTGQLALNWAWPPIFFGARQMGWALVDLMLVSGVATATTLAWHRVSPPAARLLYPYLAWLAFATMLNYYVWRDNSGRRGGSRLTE

Assay [1] addresses T1, Translocator protein (Rattus norvegicus, UniProt P16257). Put plainly: Inhibition of [3H]PK11195 binding to Peripheral type benzodiazepine receptor (PBR) in rat cortex homogenate by 50%.
Assay [2] deals with T1, Translocator protein. Description: Inhibition of [3H]PK11195 binding to mitochondrial rat testis Peripheral type benzodiazepine receptor (PBR).
Assay [3] concerns the target T1, Translocator protein. Description: Inhibition of [3H]Ro-5-4864 binding to mitochondrial rat testis Peripheral type benzodiazepine receptor (PBR).

`CNC(=O)OC1=C(c2ccccc2)Oc2ccccc2-n2cccc21`: the Ki stood at 2.26 nM at Translocator protein [1], 0.96 nM at Translocator protein [2] and 0.76 nM at Translocator protein [3].
